Test results from patent US20170079966A1, “INHIBITION OF TUMOR CELL INTERACTIONS WITH THE MICROENVIRONMENT RESULTING IN A REDUCTION IN TUMOR GROWTH AND DISEASE PROGRESSION” (Deciphera Pharmaceuticals, LLC, priority 2014, published 2017).

Sequences of proteins named here, by UniProt entry; tags and fusion partners are left off. Residues count along the entry.
UniProt P35968, 20-1356: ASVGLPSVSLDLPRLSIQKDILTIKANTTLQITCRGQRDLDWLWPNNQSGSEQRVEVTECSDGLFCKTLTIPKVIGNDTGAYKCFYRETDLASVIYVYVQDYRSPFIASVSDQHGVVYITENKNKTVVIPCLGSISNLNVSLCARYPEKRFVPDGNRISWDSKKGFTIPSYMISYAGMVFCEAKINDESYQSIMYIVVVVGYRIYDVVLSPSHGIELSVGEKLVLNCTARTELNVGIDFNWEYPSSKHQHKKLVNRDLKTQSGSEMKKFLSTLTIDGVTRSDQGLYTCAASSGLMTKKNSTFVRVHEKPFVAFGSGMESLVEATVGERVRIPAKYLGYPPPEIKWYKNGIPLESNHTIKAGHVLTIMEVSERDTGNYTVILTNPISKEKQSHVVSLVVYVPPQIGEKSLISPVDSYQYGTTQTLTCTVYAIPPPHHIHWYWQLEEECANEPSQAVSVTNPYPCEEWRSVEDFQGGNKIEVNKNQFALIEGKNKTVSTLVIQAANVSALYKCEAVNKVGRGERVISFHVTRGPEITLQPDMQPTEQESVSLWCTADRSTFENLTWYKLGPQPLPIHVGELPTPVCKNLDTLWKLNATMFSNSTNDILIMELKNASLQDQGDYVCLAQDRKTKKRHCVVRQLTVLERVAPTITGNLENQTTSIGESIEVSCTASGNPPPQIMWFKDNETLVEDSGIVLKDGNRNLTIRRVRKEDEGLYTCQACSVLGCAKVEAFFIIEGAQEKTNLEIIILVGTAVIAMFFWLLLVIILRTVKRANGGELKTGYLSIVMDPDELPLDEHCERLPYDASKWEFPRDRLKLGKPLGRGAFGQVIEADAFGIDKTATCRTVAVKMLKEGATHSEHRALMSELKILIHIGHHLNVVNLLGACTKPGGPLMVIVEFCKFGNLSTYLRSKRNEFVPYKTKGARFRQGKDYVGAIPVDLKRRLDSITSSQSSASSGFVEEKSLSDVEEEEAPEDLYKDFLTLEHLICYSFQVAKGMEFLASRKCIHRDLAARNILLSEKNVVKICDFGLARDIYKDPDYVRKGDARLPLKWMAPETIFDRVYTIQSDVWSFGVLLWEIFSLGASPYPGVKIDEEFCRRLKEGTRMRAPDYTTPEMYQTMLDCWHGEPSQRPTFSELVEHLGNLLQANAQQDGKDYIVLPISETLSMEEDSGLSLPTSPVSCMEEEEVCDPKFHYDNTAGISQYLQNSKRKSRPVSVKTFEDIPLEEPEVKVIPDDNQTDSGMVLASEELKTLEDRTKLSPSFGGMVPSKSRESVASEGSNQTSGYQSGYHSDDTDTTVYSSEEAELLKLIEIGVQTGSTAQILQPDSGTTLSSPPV

Columns and labels:
VEGFR2 = VEGFR2 (Homo sapiens, UniProt P35968); assay: cell-based
SK-MEL-28 cells = assay: HGF-stimulated melanoma proliferation cell assay; assay type: cell-based; settings: Homo sapiens, complete media, 72 h, read-out: IC50, proliferation of SK-MEL-28, single-agent
Protocol: Compound 1 in DMSO was dispensed into assay plates. SK-MEL-28 cells were added to 96-well plates (2,500 cells/well). Effects on cell proliferation were assessed by incubation of SK-MEL-28 cells in complete media, media containing 50 ng/mL HGF, or media mixed 1:1 with MRC-5 fibroblast-conditioned media. Plates were incubated for 72 h. Viable cells were identified by incubation with the vital dye resazurin and quantitated on a plate reader with excitation at 540 nm and emission at 600 nm.

In the case of `O=C(Nc1cc(Oc2cc(F)c(NC(=O)C3(C(=O)Nc4ccc(F)cc4)CC3)cc2F)ccn1)C1CC1` [Compound 1, N-(4-(2-(cyclopropanecarboxamido)pyridin-4-yloxy)-2,5-difluorophenyl)-N′-(4-fluorophenyl)cyclopropane-1,1-dicarboxamide], the IC50 (VEGFR2) is reported as 4.7 nM and the IC50 (SK-MEL-28 cells) is reported as over 10000 nM.
